Amino acid sequences for entries named in this document (tags omitted). A change or cut given only in a name is not applied to a line headed by its entry.
UniProt Q62976: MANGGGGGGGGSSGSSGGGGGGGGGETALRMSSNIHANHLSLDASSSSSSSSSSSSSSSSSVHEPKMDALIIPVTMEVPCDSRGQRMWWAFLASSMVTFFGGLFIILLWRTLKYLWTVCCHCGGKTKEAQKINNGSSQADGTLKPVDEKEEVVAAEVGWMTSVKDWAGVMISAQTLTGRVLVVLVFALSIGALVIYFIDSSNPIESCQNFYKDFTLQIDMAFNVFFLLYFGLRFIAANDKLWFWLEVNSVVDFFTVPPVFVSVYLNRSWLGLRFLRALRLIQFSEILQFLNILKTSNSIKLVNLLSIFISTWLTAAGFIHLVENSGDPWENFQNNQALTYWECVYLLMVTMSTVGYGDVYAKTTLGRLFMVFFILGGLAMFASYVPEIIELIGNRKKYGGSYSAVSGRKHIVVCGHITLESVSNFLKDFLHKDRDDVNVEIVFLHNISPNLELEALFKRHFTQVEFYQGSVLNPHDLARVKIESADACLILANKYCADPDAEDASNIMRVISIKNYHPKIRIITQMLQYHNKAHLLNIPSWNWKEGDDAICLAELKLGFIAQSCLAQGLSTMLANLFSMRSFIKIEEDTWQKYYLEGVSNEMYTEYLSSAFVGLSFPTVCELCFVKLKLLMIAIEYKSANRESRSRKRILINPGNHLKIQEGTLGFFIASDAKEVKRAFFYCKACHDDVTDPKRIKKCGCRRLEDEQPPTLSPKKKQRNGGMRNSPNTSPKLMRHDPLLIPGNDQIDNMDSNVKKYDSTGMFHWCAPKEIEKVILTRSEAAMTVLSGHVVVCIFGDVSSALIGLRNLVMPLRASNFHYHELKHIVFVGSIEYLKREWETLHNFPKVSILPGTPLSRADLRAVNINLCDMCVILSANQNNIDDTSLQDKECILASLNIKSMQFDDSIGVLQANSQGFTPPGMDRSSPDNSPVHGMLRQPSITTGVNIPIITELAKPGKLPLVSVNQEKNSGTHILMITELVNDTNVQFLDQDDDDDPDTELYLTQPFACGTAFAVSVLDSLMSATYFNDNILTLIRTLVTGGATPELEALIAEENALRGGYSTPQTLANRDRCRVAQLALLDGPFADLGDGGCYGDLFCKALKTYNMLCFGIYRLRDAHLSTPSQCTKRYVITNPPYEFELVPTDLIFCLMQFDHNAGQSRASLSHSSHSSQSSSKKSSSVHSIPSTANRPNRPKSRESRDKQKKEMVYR
UniProt Q12791: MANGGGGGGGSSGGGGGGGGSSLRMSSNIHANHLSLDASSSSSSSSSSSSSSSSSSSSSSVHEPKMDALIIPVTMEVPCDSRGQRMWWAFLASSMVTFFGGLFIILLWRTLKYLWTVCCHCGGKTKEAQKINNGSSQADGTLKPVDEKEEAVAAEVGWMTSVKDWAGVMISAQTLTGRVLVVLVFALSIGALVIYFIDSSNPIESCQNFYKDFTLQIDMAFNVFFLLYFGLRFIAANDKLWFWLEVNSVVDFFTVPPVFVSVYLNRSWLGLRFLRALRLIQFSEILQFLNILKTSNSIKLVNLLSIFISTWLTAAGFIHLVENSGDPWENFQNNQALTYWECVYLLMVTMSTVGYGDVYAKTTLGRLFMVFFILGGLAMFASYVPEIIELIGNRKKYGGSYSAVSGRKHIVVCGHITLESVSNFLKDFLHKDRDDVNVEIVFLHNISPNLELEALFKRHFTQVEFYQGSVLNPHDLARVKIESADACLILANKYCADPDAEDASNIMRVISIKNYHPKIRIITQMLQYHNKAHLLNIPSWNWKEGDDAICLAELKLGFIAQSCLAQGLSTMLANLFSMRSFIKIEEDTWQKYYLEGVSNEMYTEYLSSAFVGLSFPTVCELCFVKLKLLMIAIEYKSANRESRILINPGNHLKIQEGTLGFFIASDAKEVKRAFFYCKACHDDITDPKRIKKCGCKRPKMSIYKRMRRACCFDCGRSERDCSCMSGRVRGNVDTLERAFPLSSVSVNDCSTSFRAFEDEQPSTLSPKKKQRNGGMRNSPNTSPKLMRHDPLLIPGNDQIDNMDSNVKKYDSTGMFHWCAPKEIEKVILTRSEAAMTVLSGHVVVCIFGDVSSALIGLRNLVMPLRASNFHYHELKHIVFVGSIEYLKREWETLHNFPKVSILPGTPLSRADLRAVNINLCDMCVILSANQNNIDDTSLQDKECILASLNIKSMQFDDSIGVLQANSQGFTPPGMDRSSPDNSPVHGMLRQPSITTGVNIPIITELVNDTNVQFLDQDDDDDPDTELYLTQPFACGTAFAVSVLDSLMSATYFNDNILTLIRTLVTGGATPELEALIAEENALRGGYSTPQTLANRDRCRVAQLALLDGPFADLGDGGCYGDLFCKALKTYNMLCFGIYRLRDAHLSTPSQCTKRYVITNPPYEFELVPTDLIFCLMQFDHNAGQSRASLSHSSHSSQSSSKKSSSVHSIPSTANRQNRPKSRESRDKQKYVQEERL

In paper PMC2998342 (Peptides, 2009):

Tests used:
[1] = molecular target: KCa1.1 channels from rat skeletal muscle (Rattus norvegicus, UniProt Q62976); experiment: Single-channel recording of KCa1.1 channels in planar lipid bilayers; assay type: biochemical
Outline: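 Single-channel recording of rat skeletal muscle KCa1.1 in planar lipid bilayers. Both sides held 200 mM KCl, 10 mM Mops-KOH, pH 7.4. The intracellular side added 0.2 mM CaCl2; the extracellular side added 0.1 mM EDTA and 0.1 mg mL−1 BSA. Sides were assigned by the channel's native asymmetry.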

[2] = molecular target: human KCa1.1 channel (HSlo) (Homo sapiens, UniProt Q12791); experiment: Whole-cell patch clamp inhibition of cloned human KCa1.1; assay type: cell-based
Outline: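 Whole-cell clamp of HEK293 stably expressing N-terminal Flag-tagged human HSlo. Pipette: KCl/EGTA/Hepes-KOH pH 7.2, 0.5 μM free Ca2+. Bath: NaCl-based pH 7.4. Steps from −80 mV to +100 mV (+10 mV, 100 ms), 5 kHz filter, P/5 leak correction, paxilline-resistant current subtracted. Toxin (50 nM) gravity-perfused; −80→+50 mV pulses every 10 s tracked onset/washout. KI from one-site fit; Kd from kinetic ratio.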

CSCC[C@@H]1NC(=O)[C@@H]2CSSC[C@H](NC(=O)[C@H](CC(=O)O)NC(=O)[C@@H](NC(=O)[C@H](CC(=O)O)NC(=O)[C@@H](NC(=O)[C@H](Cc3ccccc3)NC(=O)[C@@H]3CCC(=O)N3)[C@@H](C)O)C(C)C)C(=O)N[C@@H](CO)C(=O)N[C@@H](C(C)C)C(=O)N[C@@H](CO)C(=O)N[C@@H](CCCCN)C(=O)N[C@@H](CCC(=O)O)C(=O)N[C@H]3CSSC[C@H](NC(=O)[C@H](CCCCN)NC(=O)[C@H](CCCCN)NC(=O)CNC1=O)C(=O)N[C@@H](CCCNC(=N)N)C(=O)N[C@H](C(=O)N[C@@H](Cc1ccc(O)cc1)C(=O)N[C@@H](CCC(N)=O)C(=O)O)CSSC[C@H](NC(=O)[C@H](C(C)C)NC(=O)[C@H](CO)NC(=O)[C@H](Cc1c[nH]c4ccccc14)NC3=O)C(=O)N[C@@H](CCCCN)C(=O)N[C@@H](CSCNC(C)=O)C(=O)N[C@@H](CC(C)C)C(=O)N[C@@H](Cc1ccccc1)C(=O)NCC(=O)N[C@@H](C(C)C)C(=O)N[C@@H](CC(=O)O)C(=O)N[C@@H](CCCNC(=N)N)C(=O)NCC(=O)N[C@@H](CCCCN)C(=O)N2 [IbTx-D19C-Acm]
channel block behaviour of single BKCa channels ([1]; single channel, lipid bilayer, data not shown): characteristic discrete long-lived blocked states | potency and selectivity towards KCa 1.1 ([1]; summary statement, Table 1, this work and ref [2]): retain potency and selectivity towards KCa 1.1

COc1ccc(CSC[C@@H]2NC(=O)[C@H](CCCCN)NC(=O)[C@@H]3CSSC[C@@H](C(=O)N[C@@H](Cc4ccc(O)cc4)C(=O)N[C@@H](CCC(N)=O)C(=O)O)NC(=O)[C@H](CCCNC(=N)N)NC(=O)[C@@H]4CSSC[C@H](NC(=O)[C@H](CCC(=O)O)NC(=O)[C@H](CCCCN)NC(=O)[C@H](CO)NC(=O)[C@H](C(C)C)NC(=O)[C@H](CO)NC(=O)[C@@H](NC(=O)[C@H](CC(=O)O)NC(=O)[C@@H](NC(=O)[C@H](CC(=O)O)NC(=O)[C@@H](NC(=O)[C@H](Cc5ccccc5)NC(=O)[C@@H]5CCC(=O)N5)[C@@H](C)O)C(C)C)CSSC[C@H](NC(=O)[C@H](CCCCN)NC(=O)CNC(=O)[C@H](CCCNC(=N)N)NC(=O)[C@H](CC(=O)O)NC(=O)[C@H](C(C)C)NC(=O)CNC(=O)[C@H](Cc5ccccc5)NC(=O)[C@H](CC(C)C)NC2=O)C(=O)N[C@@H](CCSC)C(=O)NCC(=O)N[C@@H](CCCCN)C(=O)N[C@@H](CCCCN)C(=O)N4)C(=O)N[C@@H](Cc2c[nH]c4ccccc24)C(=O)N[C@@H](CO)C(=O)N[C@@H](C)C(=O)N3)cc1 [Lig-IbTx-MeOBzl, native chemical ligated iberiotoxin-V16A/D19C-4-MeOBzl]
Kd [2]: 1.9 nM | inhibition at 0.05 µM ([2]; read-out: inhibition of HSlo current): ≥ 80% | affinity / dissociation rate in words ([2]; whole-cell patch clamp, human KCa1.1, listed as iberiotoxin V16A/D19-Cys-4-MeOBzl): ‘native-like’ affinity
